Data reported in US11746100B2 (GLOBAL BLOOD THERAPEUTICS, INC., priority 2020, dated 2023).

Chains of the proteins cited; added tags and fusions are not shown.
UniProt Q9NP59, whole entry: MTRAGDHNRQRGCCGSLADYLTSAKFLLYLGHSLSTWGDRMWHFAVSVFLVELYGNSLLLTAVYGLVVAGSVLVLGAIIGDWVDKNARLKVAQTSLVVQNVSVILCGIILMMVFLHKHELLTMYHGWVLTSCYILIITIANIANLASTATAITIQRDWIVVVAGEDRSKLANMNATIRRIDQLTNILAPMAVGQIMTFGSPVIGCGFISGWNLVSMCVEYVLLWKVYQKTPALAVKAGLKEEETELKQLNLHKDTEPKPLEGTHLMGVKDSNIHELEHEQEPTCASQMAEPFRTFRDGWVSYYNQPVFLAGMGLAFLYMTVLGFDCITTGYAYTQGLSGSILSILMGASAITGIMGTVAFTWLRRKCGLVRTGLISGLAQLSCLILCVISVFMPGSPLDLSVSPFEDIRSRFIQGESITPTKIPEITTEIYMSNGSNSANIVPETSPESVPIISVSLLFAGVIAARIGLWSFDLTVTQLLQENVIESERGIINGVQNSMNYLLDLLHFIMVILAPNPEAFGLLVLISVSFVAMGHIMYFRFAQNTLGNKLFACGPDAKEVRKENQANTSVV

Molecular target: human ferroportin (Homo sapiens, UniProt Q9NP59)
Experiment: Biological in-vitro ferroportin internalization assay (luciferase reporter)
Type: cell-based
Conditions: average pEC50; stably-transfected CHO cell line expressing human ferroportin tagged to a luciferase reporter; 6 h incubation with test compound
Method: The protocol for this assay is generally as described in WO2018/128828, incorporated herein by reference in its entirety. Functional internalization of ferroportin protein was measured using a stably-transfected CHO cell line expressing the human ferroportin tagged to a luciferase reporter. Cells were plated for 24 h in the presence of ferric ammonium citrate (FAC). Ferroportin protein expression was induced with doxycycline for 24 h. The next day, the compounds were added. Test compounds were dissolved in DMSO. Cells were incubated with the test compounds for 6 h, and subsequently luciferase activity was measured using the Nano-Glo Luciferase Assay System and Glomax (Promega, Madison, Wis.). The average pEC50 was determined for the test compounds.

## COc1ccc(NC(=O)[C@@H](C(C)C)N(C)c2nc(-c3ccccn3)nc3c2CCC3)cn1
  pEC50: 7.3
